These are literature values, as cited in paper PMC6155412.

pKd: −log10 of the molar value.

This data set deals with FPR1 (Homo sapiens) (UniProt P21462).

In general, pKd refers to the negative decadic logarithm of the Kd, by convention in mol/L. Consider CHIPS (from UniProt Q2FFF7), for which the pKd was 7.46.
